Two compounds from BindingDB's records for doi:10.1021/bi1013479 (University of California Irvine, 2010) can be followed below.

The chains behind the UniProt entries cited, without tags or fusion partners.
UniProt P29475, whole entry: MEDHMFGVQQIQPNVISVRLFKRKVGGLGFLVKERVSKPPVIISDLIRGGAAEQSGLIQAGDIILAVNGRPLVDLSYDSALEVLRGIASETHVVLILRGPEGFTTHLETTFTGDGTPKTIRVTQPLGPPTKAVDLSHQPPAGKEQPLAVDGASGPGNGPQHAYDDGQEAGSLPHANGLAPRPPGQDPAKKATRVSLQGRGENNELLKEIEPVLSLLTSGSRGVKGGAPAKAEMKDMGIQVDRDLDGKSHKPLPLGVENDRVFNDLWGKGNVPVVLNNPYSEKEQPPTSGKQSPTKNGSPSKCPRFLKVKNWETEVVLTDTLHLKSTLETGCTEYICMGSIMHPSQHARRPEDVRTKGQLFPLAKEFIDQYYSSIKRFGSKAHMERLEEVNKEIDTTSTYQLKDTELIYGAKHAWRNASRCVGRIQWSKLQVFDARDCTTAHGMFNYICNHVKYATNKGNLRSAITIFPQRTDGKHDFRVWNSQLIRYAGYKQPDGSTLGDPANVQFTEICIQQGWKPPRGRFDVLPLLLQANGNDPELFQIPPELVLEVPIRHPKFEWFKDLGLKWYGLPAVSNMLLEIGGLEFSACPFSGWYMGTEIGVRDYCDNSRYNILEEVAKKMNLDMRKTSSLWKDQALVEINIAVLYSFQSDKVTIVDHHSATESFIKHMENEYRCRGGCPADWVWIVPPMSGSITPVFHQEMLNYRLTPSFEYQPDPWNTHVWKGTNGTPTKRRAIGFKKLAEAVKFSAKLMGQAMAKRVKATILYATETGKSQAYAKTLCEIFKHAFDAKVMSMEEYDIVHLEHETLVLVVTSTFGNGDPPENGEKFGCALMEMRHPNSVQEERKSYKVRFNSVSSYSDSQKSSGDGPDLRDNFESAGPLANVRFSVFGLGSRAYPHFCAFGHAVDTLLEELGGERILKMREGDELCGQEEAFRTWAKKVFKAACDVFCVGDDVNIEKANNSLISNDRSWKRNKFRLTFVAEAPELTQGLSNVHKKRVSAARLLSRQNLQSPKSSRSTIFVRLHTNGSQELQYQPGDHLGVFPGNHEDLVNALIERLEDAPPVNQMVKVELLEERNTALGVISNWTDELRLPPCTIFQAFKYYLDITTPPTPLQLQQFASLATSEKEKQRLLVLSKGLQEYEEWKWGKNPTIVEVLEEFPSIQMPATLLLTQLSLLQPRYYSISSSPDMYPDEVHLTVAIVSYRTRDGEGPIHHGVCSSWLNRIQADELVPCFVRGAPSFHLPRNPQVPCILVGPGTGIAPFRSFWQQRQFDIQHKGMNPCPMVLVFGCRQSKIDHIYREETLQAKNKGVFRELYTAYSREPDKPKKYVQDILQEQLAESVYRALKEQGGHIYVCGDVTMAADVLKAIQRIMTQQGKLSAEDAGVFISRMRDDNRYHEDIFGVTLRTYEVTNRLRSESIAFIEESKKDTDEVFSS

As usually defined, the Ki is a measure of affinity in units of concentration, obtained from inhibition or displacement. High values mean lower affinity, low ones higher affinity.

The assay has as its target Nitric oxide synthase, brain (Homo sapiens, UniProt P29475). Nature of the assay: Inhibitory Assay. The source says: Inhibition assay using nitric oxide synthases.

On to `Cc1cc(N)nc(CCc2cccc(CCc3cc(C)cc(N)n3)c2)c1` [NOS Inhibitor, 3h], for which the inhibition constant (Ki) is 38 nM. That is a double-digit nanomolar value.

On to `Cc1cc(N)nc(CCc2cncc(CCc3cc(C)cc(N)n3)c2)c1` [NOS Inhibitor, 3j], for which the affinity corresponds to a Ki of 25 nM.
